ChEMBL document CHEMBL1765068, “Role of the side chain stereochemistry in the α-glucosidase inhibitory activity of kotalanol, a potent natural α-glucosidase inhibitor” (Bioorg Med Chem, 2011)

Sequences of proteins named here, by UniProt entry; tags and fusion partners are left off. Residues count along the entry.
UniProt P23739, 1014-1841 limits assumed: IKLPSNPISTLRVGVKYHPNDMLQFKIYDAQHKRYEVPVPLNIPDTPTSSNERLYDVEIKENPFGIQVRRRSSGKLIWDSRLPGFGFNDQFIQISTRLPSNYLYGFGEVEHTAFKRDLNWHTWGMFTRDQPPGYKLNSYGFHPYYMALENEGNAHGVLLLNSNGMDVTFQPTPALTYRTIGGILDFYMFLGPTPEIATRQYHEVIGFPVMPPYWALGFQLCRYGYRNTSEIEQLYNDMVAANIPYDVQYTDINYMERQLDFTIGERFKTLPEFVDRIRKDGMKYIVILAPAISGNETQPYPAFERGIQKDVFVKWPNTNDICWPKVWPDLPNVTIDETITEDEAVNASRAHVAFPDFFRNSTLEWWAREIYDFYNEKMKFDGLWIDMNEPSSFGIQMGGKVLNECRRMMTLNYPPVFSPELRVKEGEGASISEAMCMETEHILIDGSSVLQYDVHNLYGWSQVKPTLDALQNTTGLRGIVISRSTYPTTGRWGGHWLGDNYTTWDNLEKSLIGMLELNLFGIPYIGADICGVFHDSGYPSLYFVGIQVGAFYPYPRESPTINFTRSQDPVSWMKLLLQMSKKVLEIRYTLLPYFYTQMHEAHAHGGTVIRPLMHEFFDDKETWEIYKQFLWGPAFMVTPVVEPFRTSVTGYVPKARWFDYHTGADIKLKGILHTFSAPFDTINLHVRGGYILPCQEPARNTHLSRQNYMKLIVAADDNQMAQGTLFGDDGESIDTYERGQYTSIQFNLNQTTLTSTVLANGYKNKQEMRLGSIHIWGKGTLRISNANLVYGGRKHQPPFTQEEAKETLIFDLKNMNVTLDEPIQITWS
UniProt P23739, 1-1013 limits assumed: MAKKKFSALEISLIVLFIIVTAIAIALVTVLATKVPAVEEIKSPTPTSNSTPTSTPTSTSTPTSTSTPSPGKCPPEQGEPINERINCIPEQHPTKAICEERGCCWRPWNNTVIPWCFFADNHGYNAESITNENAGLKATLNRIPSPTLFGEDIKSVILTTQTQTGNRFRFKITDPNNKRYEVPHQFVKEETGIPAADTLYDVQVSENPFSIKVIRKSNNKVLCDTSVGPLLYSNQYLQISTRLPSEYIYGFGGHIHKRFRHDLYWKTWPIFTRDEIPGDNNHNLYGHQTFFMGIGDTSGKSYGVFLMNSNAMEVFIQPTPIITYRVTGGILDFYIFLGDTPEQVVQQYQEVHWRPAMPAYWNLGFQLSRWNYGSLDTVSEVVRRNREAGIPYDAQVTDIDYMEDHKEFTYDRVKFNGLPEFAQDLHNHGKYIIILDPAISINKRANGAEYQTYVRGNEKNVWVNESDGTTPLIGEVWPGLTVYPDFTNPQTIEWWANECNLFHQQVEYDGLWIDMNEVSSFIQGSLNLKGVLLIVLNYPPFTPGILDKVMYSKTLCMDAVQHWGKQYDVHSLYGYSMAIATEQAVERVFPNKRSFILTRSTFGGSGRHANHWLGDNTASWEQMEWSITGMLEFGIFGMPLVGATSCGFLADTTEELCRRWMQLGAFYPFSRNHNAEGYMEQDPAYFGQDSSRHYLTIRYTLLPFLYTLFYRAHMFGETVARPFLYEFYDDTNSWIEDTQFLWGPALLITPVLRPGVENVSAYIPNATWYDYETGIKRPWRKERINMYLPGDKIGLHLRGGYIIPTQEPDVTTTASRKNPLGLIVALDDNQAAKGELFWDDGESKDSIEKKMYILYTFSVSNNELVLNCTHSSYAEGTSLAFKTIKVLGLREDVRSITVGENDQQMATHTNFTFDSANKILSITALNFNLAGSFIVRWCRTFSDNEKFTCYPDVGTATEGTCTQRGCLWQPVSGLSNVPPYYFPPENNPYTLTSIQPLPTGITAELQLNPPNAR

Molecular target: Sucrase-isomaltase, intestinal (Rattus norvegicus, UniProt P23739)
Assay: Inhibition of rat small intestinal sucrase after 30 mins
Summary of the method: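 Enzyme source was rat small-intestinal brush-border membrane vesicles suspended in 0.1 M maleate buffer, pH 6.0. Substrate solutions were maltose 74 mM (maltase), sucrose 74 mM (sucrase) and isomaltose 7.4 mM (isomaltase). These were mixed with compound (DMSO, final 2.5%) and enzyme, incubated at 37 °C for 30 min, then boiled 2 min. Glucose was measured by glucose oxidase. IC50 was read graphically from % inhibition versus log concentration.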

Q: For C[C@H]1O[C@H](O[C@H]2[C@H](O)[C@@H](O)[C@@H](O[C@H]3[C@H](O)[C@@H](O)C(O)O[C@@H]3CO)O[C@@H]2CO)[C@H](O)[C@@H](O)[C@@H]1N[C@H]1C=C(CO)[C@@H](O)[C@H](O)[C@H]1O (stereo partly specified) [ACARBOSE], which IC50 is on record?
A: 2 µM
